## AlphaSeq binding of Ab-14 light chain variants to a spike HR2 peptide

Antigen: PDVDLGDISGINAS, a 14-residue peptide of the SARS-CoV-2 spike HR2 region.

Ab-14 is the parent antibody, in scFv form: VH, then a 15-residue (Gly4Ser)3 linker, then VL. The heavy chain is unchanged in all variants.
VH: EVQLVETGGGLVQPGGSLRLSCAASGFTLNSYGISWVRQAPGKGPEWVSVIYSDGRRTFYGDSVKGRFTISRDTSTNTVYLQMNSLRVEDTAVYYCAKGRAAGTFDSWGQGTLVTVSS
VL: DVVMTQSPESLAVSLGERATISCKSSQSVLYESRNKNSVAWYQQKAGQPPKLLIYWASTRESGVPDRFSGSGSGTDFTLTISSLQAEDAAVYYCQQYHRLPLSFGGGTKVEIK

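The starting antibody came from a phage panning campaign against this peptide. These sequences belong to a second round, designed from the earlier measurements on random variants of the parent. Their group label is 14L_GP_HC (GP: Gaussian process model; HC: hill climbing; a sequence that several methods proposed may carry one label only). Affinity was read by AlphaSeq, a pooled yeast mating assay with surface-displayed partners. Mating (16 h, 30 °C) was followed by selection of diploids and sequencing of their barcodes. Scores were corrected for input abundance and mapped to Kd with protein pairs of known affinity run in the same pool. The assay was run in six technical replicates.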

Variants are written as CDR1, CDR2 and CDR3 of the light chain (limits as in the source). Parent: KSSQSVLYESRNKNSVA, WASTRES, QQYHRLPLS.
Numbers give log10(Kd / nM), so 0 is 1 nM and 3 is 1 µM. Smaller is tighter.
Averages over replicates are reported, and they cover detected replicates only.
In the paper, a design with two or fewer of six values counts as a poor binder.
Nonspecific signal, from three strains lacking the peptide, appeared in 4% of pairings of all light chain designs, centred on 2.64 (5% of these signals below 1.59); values are not corrected for it. Also given: how often the same scFv was detected with the empty control strains, with their mean in brackets.
Values of this round are not directly comparable with the first-round values of the same sequences.
Of ten entries with the parent sequence, four were seen in most replicates (averages 0.34 to 2.37), three in one and three in none, so single entries are noisy.

CDR-L1 | CDR-L2 | CDR-L3 | replicates, log10 nM | mean, log10 nM | empty controls
KLPFSTLYESRQKNSVA | WASTRES | QQYHRLPLS | 1.70 1.68 1.72 1.52 1.77 1.37 | 1.63 | 0 of 18
KFSQSVLYESRTKNSVA | NASTRES | QGYHRLPLS | 0.45 0.32 0.20 0.37 0.29 0.47 | 0.35 | 3 of 18 (3.45)
KSSQVVLYESHNKNSVA | NASTRMS | QQYHRLPLS | 0.65 0.26 0.33 0.28 0.36 0.60 | 0.41 | 3 of 18 (2.19)
KSSQSWLYESRNFWSVA | NASQRES | QQYHRLPLS | 0.10 -0.17 0.11 -0.13 0.07 0.15 | 0.02 | 0 of 18
KSSSSVLYESENKNSVA | EASQRES | QQYHRLPLS | 0.58 1.07 1.10 0.59 0.80 0.85 | 0.83 | 0 of 18
KSLQSVLYESRNFNSVA | EASTRED | QQYHRLPLS | 0.35 0.72 0.69 0.68 0.55 0.63 | 0.60 | 0 of 18
KLSQSVAYESRTKNSVA | NASTRES | QQYHRLPLS | 0.16 -0.15 -0.18 -0.17 -0.18 -0.04 | -0.09 | 1 of 18 (3.09)
KISQSVLAESRNKNSVA | DASTRES | QQYHRLPLS | -0.23 -0.54 -0.32 -0.64 -0.41 -0.15 | -0.38 | 0 of 18
KSSQSWLYESRNKNSVA | NASAREV | QQYHRLPLS | -0.19 -0.25 -0.46 -0.20 -0.36 -0.36 | -0.30 | 1 of 18 (2.00)
KVSQSVLYESRNKNAVA | GASTRES | QQYHRLPLS | 0.14 0.19 -0.07 -0.10 -0.12 -0.03 | 0.00 | 1 of 18 (4.04)
KFSQSVHYESRTKNSVA | NASTRES | QQYHRLPLS | 0.03 0.03 -0.06 -0.18 -0.14 0.16 | -0.03 | 0 of 18
KSSISKLYESENKNSVA | EASQRES | QQYHRLPLS | 1.42 0.71 0.61 0.99 0.88 1.01 | 0.94 | 0 of 18
HQSPSELYESRNKNNVA | NASTRES | QQYHRLPLS | -0.22 -0.32 -0.38 -0.61 -0.18 -0.06 | -0.29 | 1 of 18 (2.12)
KSDQSVLYESRNKNSVA | HASTRED | QQYGRLPLS | 0.99 0.47 0.24 0.28 -0.01 0.69 | 0.44 | 0 of 18
KSLQSVLYESRNFNSVA | NASTRED | QQYHRLPLS | 0.64 0.25 0.04 0.15 0.43 0.63 | 0.36 | 0 of 18
KASQSYHYESRNKNSVA | GASTRES | QQYHRLPLS | 0.07 -0.13 0.10 0.23 0.06 0.43 | 0.13 | 1 of 18 (2.40)
KQSQSVKFESRNKNNVA | DASTRES | QQYHRLPLS | 0.03 -0.28 -0.35 -0.38 -0.32 -0.06 | -0.23 | 0 of 18
KLSQSTLYESRNKNSVA | QASTRES | QQYHRLPLT | 0.19 0.26 -0.15 -0.08 0.03 0.20 | 0.07 | 0 of 18
KSSQSWDYESRNFWNVA | GASTRES | QQYHRLPLS | 0.04 0.09 -0.32 -0.24 -0.33 0.04 | -0.12 | 1 of 18 (3.35)
KLQQSQLYESRNKNSVA | HASTRED | QQYHRLPLS | 0.12 0.09 -0.02 -0.18 -0.13 -0.16 | -0.05 | 0 of 18
KSSQGVLYESRVKNSVA | GASTRES | QQYHRLPLS | 0.65 0.29 0.41 0.36 0.55 0.59 | 0.48 | 3 of 18 (3.02)
KVRQSMLYESRNKNSVA | NASTRES | QQYHRLPLS | -0.03 -0.28 -0.45 -0.35 -0.27 0.16 | -0.20 | 0 of 18
KSSISYLYESPNKNSVA | QASTRES | QQYHRLPLS | 3.02 1.22 1.96 1.50 0.98 1.81 | 1.75 | 1 of 18 (3.00)
KSSKSTLYESRNKNSVA | NASTRES | QQYHRLPLS | 2.05 2.05 2.30 1.60 1.99 1.98 | 2.00 | 0 of 18
KSSQSWLYESRNFWSVA | GASTRED | QQYHRLPLS | 0.91 0.71 0.54 0.37 0.47 0.95 | 0.66 | 0 of 18
KVSQSVLYESGNKNSVA | NASTRMS | QQYHRLPLS | -0.12 0.05 0.22 -0.24 -0.48 0.07 | -0.08 | 0 of 18
KSSISYLIESRNKNSVA | DASTRES | QQYHRLPLS | -0.72 -0.44 -0.83 -0.81 -0.76 -0.73 | -0.72 | 0 of 18
KSSQSYHYESRNKNSVA | EASTRES | QQYHRLPLS | -0.07 0.11 0.07 -0.17 -0.06 0.29 | 0.03 | 0 of 18
KVSQSWLYESRNKNSVA | GASLRES | QQYHRLPLS | 0.16 0.19 -0.04 0.17 0.06 0.28 | 0.14 | 2 of 18 (3.27)
KSLQSWLYESRNKNSVA | HASEREQ | QQYHRLPLS | 0.42 0.23 -0.02 0.16 0.34 0.21 | 0.22 | 0 of 18
KMEQGVLYESRNKNSVA | NASTRES | QQYHRLPLS | -0.15 -0.14 -0.16 -0.52 -0.29 -0.09 | -0.23 | 1 of 18 (4.64)
KLRQSTLYESRNKNSVA | GASTRLS | QQYHRLPLS | -0.07 0.22 -0.18 0.15 0.30 0.00 | 0.07 | 0 of 18
KLYMSTLYESRNKNSVA | NASTRES | QQYHRLPLS | -0.23 -0.20 -0.28 -0.26 -0.48 -0.28 | -0.29 | 0 of 18

The 2 strongest on average among those seen in every replicate, once more:

{"CDR-L1": "KSSISYLIESRNKNSVA", "CDR-L2": "DASTRES", "CDR-L3": "QQYHRLPLS", "replicates, log10 nM": "-0.72 -0.44 -0.83 -0.81 -0.76 -0.73", "mean, log10 nM": "-0.72", "empty controls": "0 of 18"}
{"CDR-L1": "KISQSVLAESRNKNSVA", "CDR-L2": "DASTRES", "CDR-L3": "QQYHRLPLS", "replicates, log10 nM": "-0.23 -0.54 -0.32 -0.64 -0.41 -0.15", "mean, log10 nM": "-0.38", "empty controls": "0 of 18"}

Data: MIT Lincoln Laboratory AlphaSeq set, Li et al. 2023, doi:10.1038/s41467-023-39022-2, as distributed in FLAb.